The test system of this assay is NHDF (normal human dermal fibroblasts). As to the kind of experiment: Sulforhodamine B cytotoxicity assay, NHDF. As to conditions: SRB assay, 48 h, mean (SD), n = 3. The class given is cell-based. From the text:
The sulforhodamine B assay was used to estimate the cytotoxic properties of the compounds. The cytotoxic activity of dimethylpyridine derivatives was studied against human cancer cell lines: A549 (pulmonary basal cell alveolar adenocarcinoma) and LoVo (colon adenocarcinoma). Additionally, the effect of compounds on NHDF (normal human dermal fibroblasts) and normal cell line V79 (fibroblast from Chinese hamster lung) was examined.
Normal human dermal fibroblasts (NHDF) from adult donors were purchased from Lonza (Verviers, Belgium). Normal cell line V79 (fibroblast from Chinese hamster lung) and human cancer cell lines, A549 (pulmonary basal cell alveolar adenocarcinoma) and LoVo (colon adenocarcinoma) were obtained from the European Collection of Authenticated Cell Cultures (ECACC).
Cells were grown in the culture media recommended by the cell line supplier. Before the test, adherent cells were detached with the trypsin EDTA solution, and FBS-containing medium was used to neutralize the effects of the trypsin/EDTA solution. After that, cells were spun down, counted, stained with a 0.4% solution of trypan blue and inspected under a microscope for cell viability. Then, cells were placed on 96-well plastic culture plates (2 × 10^3 cells/well) and incubated at 37 °C in a CO2-incubator for 24 h. […] Finally, cells were harvested and intended for the cell proliferation test. […]

Regarding `CN1C(C(=O)Nc2ccccn2)=C(O)c2ccccc2S1(=O)=O` [Piroxicam, reference compound], half-maximal inhibition (IC50) was put at 170 µM.

Broadly, the IC50 is the concentration that gives 50% inhibition. A low value points to greater potency.

The record behind these values is publication PMC6471528, “Biological Evaluation and Molecular Docking Studies of Dimethylpyridine Derivatives” (Molecules, 2019).
